This is a selection; strong and weak results do not stand in their true shares. The source made the active and inactive calls.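 Rule for the calls: active = activation above the screen-wide mean plus 3 SD (cut at about 4.5% in these data, passing the limit was not always enough); inactive = the rest, inconclusive results apart.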

Protein sequences, listed by entry. Tags and fused reporters are not part of them. Lines headed by an entry give the natural chain unless they say otherwise; changes in a name come on top.
UniProt Q99500: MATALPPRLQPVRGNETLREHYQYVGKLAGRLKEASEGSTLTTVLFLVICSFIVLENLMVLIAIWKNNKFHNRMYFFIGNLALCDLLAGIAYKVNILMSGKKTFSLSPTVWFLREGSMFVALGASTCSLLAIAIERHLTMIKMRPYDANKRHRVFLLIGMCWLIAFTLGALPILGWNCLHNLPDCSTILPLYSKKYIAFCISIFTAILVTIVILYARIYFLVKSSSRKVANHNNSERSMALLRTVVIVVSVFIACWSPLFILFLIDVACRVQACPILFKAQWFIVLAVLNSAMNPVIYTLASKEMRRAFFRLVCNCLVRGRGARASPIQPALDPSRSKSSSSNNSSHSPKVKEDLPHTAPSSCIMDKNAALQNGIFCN

The assay deals with Sphingosine 1-phosphate receptor 3 (Homo sapiens) (UniProt Q99500). Nature of the assay: activators of S1P3 receptor signaling – cell-based, primary and confirmation, NFAT-BLA reporter, primary screen (AID 373). As to conditions: S1P3 NFAT-BLA reporter cells, agonism, FRET ratio; at 4.5 µM; stronger effect = higher value; relative to 1 µM S1P, basal subtracted.
Consider `O=P(Nc1nccs1)(c1ccccc1)c1ccccc1`, for which the activation is inactive: -0.8%. As for `c1nnnn1CCn1cnnn1`, the figure is inactive: -1.3%; as for `O=C(OC1CN2CCC1CC2)c1cccc(Cl)c1` (centres undefined), inactive: -0.8%; as for `O=P1(Nc2nc3ccc(Cl)cc3s2)COc2ccccc2O1` (centres undefined), inactive: -0.9%. The value for `Cc1c2non([O-])c-2c(C)[n+](=O)[n+]1[O-]` was inactive: -2.3%.

Turning to `CCc1nc2c(n1)c1c(non1O)c1c2no[n+]1[O-]`, the activation was inactive: -2.1%. The value for `COP1(=S)c2c(C)nn(CCC#N)c2N=C(c2ccc(F)cc2)N1C` (centres undefined) was inactive: -0.9%. Consider `O=C(COc1ccccc1)OC1CN2CCC1CC2` (centres undefined), for which the activation is inactive: -1.2%. As for `O=C(OC1CN2CCC1CC2)C12CC3CC(CC(C3)C1)C2` (centres undefined), the figure is inactive: -0.8%; as for `Cc1cccc(OCC(=O)OC2CN3CCC2CC3)c1` (centres undefined), inactive: -2.4%; as for `CCOP1(=S)c2c(C)nn(CCC#N)c2N=C(c2ccc(F)cc2)N1C` (centres undefined), inactive: -0.1%. In the case of `O=P(Nc1nccs1)(c1ccccc1)c1nc2ccccc2s1` (centres undefined), the activation was inactive: -0.5%. For the compound `CCOP1(=S)c2c(C)nn(CCC#N)c2N=C(c2ccccc2F)N1C` (centres undefined), the activation was inactive: -0.9%. For `O=P1(Nc2ncccn2)COc2ccccc2OC1`, the activation was inactive: -0.1%.

Take `Cc1ccc(OCC(=O)OC2CN3CCC2CC3)cc1` (centres undefined): the activation is inactive: -0.9%. The value for `O=P1(Nc2ccc(Br)cn2)COc2ccccc2OC1` was inactive: 1%; that for `Cc1nn(-c2ccccc2)c2c1P(=O)(N1CCOCC1)N(C)C(c1ccccc1)=N2` (centres undefined) was inactive: 0.1%.

Regarding `O=P1(Nc2ccccn2)COc2ccccc2OC1`, the activation was inactive: 0%. The value for `Clc1n[nH]nc1-c1nn[nH][15n]1` was inactive: -0.2%.

Source of the values: PubChem BioAssay AID373 (The Scripps Research Institute Molecular Screening Center, 2006).
